Test results from PMC11386428.

Experiments:
[1] = target: T1, tau4R, the microtubule-binding region with R1-R4, labelled with Alexa Fluor 488 (human (by the printed UniProt entry)); experiment: fluorescence correlation spectroscopy (FCS); ~20 nM fluorescent protein (Alexa 488-labelled tau construct or eGFP) with unlabelled monomer αS up to 150 μM; 20°C; 50 mM Na2HPO4, 50 mM NaCl pH 7.0; single-species diffusion fit, τD normalised to the protein alone
[2] = target: T2, tau_(1N4R), full-length 1N4R tau, labelled with Alexa Fluor 488 (human (by the printed UniProt entry)); experiment: as above
[3] = target: T1, tau4R, the microtubule-binding region with R1-R4, labelled with Alexa Fluor 488 (human); experiment: fluorescence correlation spectroscopy (FCS); ~20 nM fluorescent protein (Alexa 488-labelled tau construct or eGFP) with unlabelled αS seeds at 20, 60 or 100 nM (monomer units); 20°C; 50 mM Na2HPO4, 50 mM NaCl pH 7.0; two-component diffusion fit, medians of type III curves
[4] = target: T2, tau_(1N4R), full-length 1N4R tau, labelled with Alexa Fluor 488 (human); experiment: as above

Substance	percent increase in τD at 150 μM αS [1]	percent increase in τD at 150 μM αS [2]	median fB (fraction of tau with τD2) at 20 nM αS seeds [3]	median fB (fraction of tau with τD2) at 60 nM αS seeds [3]	median fB (fraction of tau with τD2) at 100 nM αS seeds [3]	median fB (fraction of tau with τD2) at 20 nM αS seeds [4]	median fB (fraction of tau with τD2) at 60 nM αS seeds [4]	median fB (fraction of tau with τD2) at 100 nM αS seeds [4]	median type III τ (D2app) at 100 nM αS seeds [4]
N-terminally acetylated full-length α-synuclein, monomer (from UniProt P37840 1-140) (natural protein)	10%	7%							
full-length αS seeds (sonicated fibrils of N-terminally acetylated α-synuclein) (from UniProt P37840 1-140) (complex)			0.12	0.17	0.17	0.067	0.26	0.161	2.5 ms
